target: human recombinant DGAT1 enzyme expressed in insect cells (SF9 cells) (Homo sapiens, UniProt O75907); test: DGAT-1 inhibition assay (IC50), SF9 microsomes; conditions: read-out: IC50 DGAT-1 (SF9); SF9 insect cells expressing human DGAT-1; summary of Table 1
Procedure: The activity of DGAT-1 inhibitors in vitro was evaluated by using a human recombinant DGAT1 enzyme expressed in insect cells (SF9 cells). SF9 cells were homogenised by washing them with DPBS (Dulbecco’s phosphate-buffered saline) and then suspending cell pellets with a tris buffer (250 mM sucrose; 10 mM Tris-HCl [pH 7.4]; proteinase inhibitor). The resulting mixture was centrifugally separated at 10,000 × g for 30 min to remove the cell debris remaining in the lower layer thereof, and was centrifugally separated at 100,000 × g for 60 min to obtain a microsomal membrane. Further, membrane fractions were resuspended by the tris buffer, and then stored at -80 °C.
The activity of DGAT1 was measured according to the reported method. Specifically, 0.0001 – 10 μΜ (final concentration, FC) of the test compounds were cultured at room temperature (25 °C) for 15 min with a […] of SF9 microsomal protein solution and 100 mM of MgCl2 solution, and were then further cultured at room temperature (25 °C) for 30 min after the addition of 100 μΜ (FC in 12.5% EtOH) of 1,2-dioleyl-sn-glycerol and 30 μΜ (final conc.) of [14]C-oleyl coenzyme A. The reaction was completed by the addition of 300 μL of a mixed solution of 2-propanol/heptane (7:1), and radioactive triglyceride was separated from an organic solvent layer by using 200 μL of heptane and 200 μL of a 0.1 M carbonate buffer (pH 9.5). The amount of triglyceride was measured by liquid scintillography (Perkin Elmer, USA) after mixing with an organic solvent and an equivalent amount of scintillation solvent (MicroScint-O, Perkin Elmer, USA). The effects of inhibiting DGAT1 were calculated as percent in comparison with a control material.
The activities of synthesised compounds were evaluated using SF9 insect cells expressing human DGAT-1[22]. A potent DGAT-1 inhibitor, LCQ-908 (2 or pradigastat) was used as a positive control. […] The calculated lowest energy conformation model of 14c provided that the distance between the terminal carboxylic acid and NH of urea was over 16 Å, which may result in reduced activity. […]

The chains behind the UniProt entries cited, without tags or fusion partners.
UniProt O75907, whole entry: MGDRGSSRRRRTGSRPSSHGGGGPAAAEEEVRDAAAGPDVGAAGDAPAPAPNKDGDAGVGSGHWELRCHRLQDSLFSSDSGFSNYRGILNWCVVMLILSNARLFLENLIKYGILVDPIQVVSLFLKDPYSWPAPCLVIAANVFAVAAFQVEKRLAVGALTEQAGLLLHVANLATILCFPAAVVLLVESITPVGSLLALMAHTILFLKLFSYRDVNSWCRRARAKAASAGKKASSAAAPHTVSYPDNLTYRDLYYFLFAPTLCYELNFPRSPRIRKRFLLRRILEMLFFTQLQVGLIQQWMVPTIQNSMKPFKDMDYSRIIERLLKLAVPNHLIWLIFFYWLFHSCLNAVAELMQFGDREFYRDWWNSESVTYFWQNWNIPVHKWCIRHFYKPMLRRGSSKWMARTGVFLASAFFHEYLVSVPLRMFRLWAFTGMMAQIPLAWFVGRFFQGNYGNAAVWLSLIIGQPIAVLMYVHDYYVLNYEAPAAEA

SMILES | IC50 [nM]
O=C(O)CC1CCC(c2csc3c(-c4ccc(NC(=O)Nc5cncc(Br)c5)cc4)ncnc23)CC1 (stereo not drawn) | > 1000
O=C(O)CC1CCC(c2csc3c(-c4ccc(NC(=O)c5ccc(C(F)(F)F)nc5)cc4)ncnc23)CC1 (stereo not drawn) | > 1000
O=C(O)CC1CCC(c2csc3c(-c4ccc(NC(=O)Nc5cc(Cl)ccn5)cc4)ncnc23)CC1 (stereo not drawn) | > 1000

Reference: article PMC6882492, “Synthesis and biological evaluation of novel thienopyrimidine derivatives as diacylglycerol acyltransferase 1 (DGAT-1) inhibitors” (Journal of Enzyme Inhibition and Medicinal Chemistry, 2019)
